What was measured:
Format in all cases: cell-based
[1] = test system: breast cancer cells (SK-BR-3); assay: C3 deposition on opsonized breast cancer cells (FACS, anti-human C3); details: SK-BR-3 cells opsonized in 40% serum
[2] = test system: breast cancer cells (SK-BR-3); assay: Antibody binding to breast cancer cells (FACS, anti-human IgG1); details: SK-BR-3 cells
Procedure: (§1) SK-BR-3 cells (ATCC) were cultured in McCoy's 5A Medium (Gibco) supplemented with 10% FBS.
Fluorescence Activated Cell Sorting (FACS) analysis was used to detect Herceptin binding to breast cancer cells (by using anti-human IgG1 antibodies, Sigma) and C3 deposition (by using anti-human C3 antibodies, Accurate Chem.).

[3] = test system: breast cancer cells (SK-BR-3); assay: Cytotoxicity with serum (CytoTox 96, lactate dehydrogenase release); details: incubation with serum, LDH release
Procedure: as §1
(§2) Cytotoxicity to breast cancer cells following incubation with β-1,6-glucan-conjugated or unconjugated Herceptin and serum was determined by CytoTox 96® Non-Radioactive Cytotoxicity Assay (Promega), which detects lactate dehydrogenase released from lysed cells. For neutrophil-dependent killing, above cells were cultured with neutrophils at 37° C. after which cytotoxicity was measured.

[4] = test system: breast cancer cells (SK-BR-3); assay: Neutrophil-dependent killing of breast cancer cells; details: cells cultured with neutrophils at 37° C.
Procedure: Fresh human blood and serum were provided by Research Blood Components (Brighton, Mass.). Neutrophils were isolated from fresh human blood in accordance with a protocol approved by the MIT Committee on Use of Humans as Experimental Subjects by using Histopaque 1077 and Histopaque 1119 (Sigma).
as §2

Substance | C3 deposition on breast cancer cells [1] | binding to breast cancer cells [2] | cytotoxic effect on the breast cancer cells (complement) [3] | neutrophil killing of the cancer cells [4]
Herceptin conjugated to β-1,3-glucan: Herceptin conjugated to β-1,3-glucan, comparator for C3 deposition | but not | – | – | –
Herceptin-β-1,6-glucan conjugate: Herceptin (Genentech) conjugated to β-1,6-glucan following oxidation with sodium meta periodate | – | did not affect its binding to breast cancer cells | dose-dependent cytotoxic effect | increased neutrophil killing
unconjugated Herceptin: Herceptin mAb directed against the Her-2/neu protein overexpressed on SK-BR-3 cells [reference compound] | – | – | lacked any effect | –

Source: US9005903B2, “Immunomodulating compositions and methods of use thereof” (ImmuneXcite, Inc., priority 2008, dated 2015)
